Shown are actives, neighbours in structure and some others; about 3.7% of the full set was active somewhere.
Nrf2 ARE act = activators of Nrf2 (ARE) signaling. AREc32 ARE-luciferase reporter (MCF7-derived line), luminescence, 24 h. Potency, µM (top dose mostly 46.1 µM), for the others: at the highest dose activation, most hits filed as activators. actives 0.31% (n = 410,000). AID 624171; also: potency is read from the fitted curve at half-maximal effect; % of control where 0% means no effect; nearly all actives have a fitted effect of over 65% in size
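AREc32_Fluc, 1000 cells/well, OPTI-MEM + 5% FBS, o/n 37 deg C 5% CO2; 23 nL cpd by pin tool, 24 hr; Steady-Glo 30 min RT, luminescence.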
TCR activator = activators of T cell receptors; primary human leukocytes, anti-CD3, IL-2 HTRF, 48 h; Potency, µM (titrated, usually from 9.22 µM), for the others: top-dose activation of IL-2 secretion, hits mostly activators; 330,000 tested, under 10 active; also: % of control where 0% means no effect
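IL-2 produced over 48 hr by a-CD3 bead-stimulated primary human leukocytes exposed to compounds was detected with a homogeneous time-resolved FRET immunoassay, 665nm acceptor signal after 320nm excitation.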
Nrf2 block = Nrf2 pathway inhibition | actives 2.1% (n = 360,000) | AID 504444 | A549 ARE-Fluc reporter, luciferase luminescence, 18-24 h | Potency, µM (highest dose often 46 µM), for inactives: at the highest dose activity change, negative = inhibition, hits mostly inhibitors; also: potency is read from the fitted curve at half-maximal effect; % is scaled to controls: 0 for no effect and ±100 for the full control effect; nearly all actives have a fitted effect of over 60% in size
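A549 ARE_Fluc cells (5000/well, 5% FBS OPTI-MEM) pre-incubated 2 h, then treated with compounds 18-24 h at 37C/5% CO2 in concentration-response. CellTiter-Fluor viability read first; BugLite luciferase luminescence after 15 min at room temperature gives Nrf2 activity.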
ClpP mod = qHTS Assay for Activators of ClpP; ATP-dependent Clp protease proteolytic subunit (Bacillus subtilis (strain 168)), P80244; purified B. subtilis ClpP, FRET peptide cleavage, 20 min; Potency, µM (doses to about 57.5 µM), without a hit: at the top dose activity change, negative = active; actives 1.9% (n = 340,000); AID 651965, 2013; active = well fitted falling curve with a large enough effect; inconclusive = small, poorly fitted or top-dose-only effect; inactive = no such curve, though single readings can be large or run the other way; also: potency is read from the fitted curve at half-maximal effect; the source files actives as falling curves though it sought activators and does not explain the sign; nearly all actives have a fitted effect of over 65% in size
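Purified B. subtilis ClpP, 10 microg/mL final in Tris/HCl pH8 with KCl, BSA, glycerol and Tween-20, cleaved an Abz/nitrotyrosine-quenched decapeptide. Fluorescence (ex 320, em 430) was read at 0 and 20 min at room temperature. Delta was normalized to 5.8 microM ADEP and DMSO/no-enzyme controls.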
miR-21 reporter = miR-21 reporter, rising signal; HeLa miR-21 FLuc reporter, luciferase, 48 h; Potency, µM (highest dose often 38.3 µM), for the others: top-dose reporter change, positive = more light; 340,000 tested, under 10 active; AID 2288; active = well fitted rising curve with a large enough effect; inconclusive = small, poorly fitted or top-dose-only effect; inactive = no such curve, though single readings can be large or run the other way;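 further: % of control where 0% means no effect; miR-21 action dims this reporter so a rising signal means less miR-21 action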
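Compounds were titrated across several concentrations (up to approximately 40 uM) and incubated 48 hours with HeLa miR-21-FLuc reporter cells (miR-21 target sequence downstream of FLuc, endogenous miR-21). Readout was firefly luciferase luminescence after lytic detection reagent.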
A549 viability = counter-screen for Nrf2 inhibitors: cytotoxicity in A549 cells | actives 0.16% (n = 390,000) | Potency, µM (titrated, usually from 46 µM), inactives show top-dose activity change, negative = cytotoxicity, actives largely listed as inhibitors | AID 504648 | A549 ARE-Fluc cells, CellTiter-Fluor viability, 18-24 h; also: potency is read from the fitted curve at half-maximal effect; % is scaled to controls: 0 for no effect and ±100 for the full control effect
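Cytotoxicity counterscreen: CellTiter-Fluor fluorescence was measured in A549 ARE_Fluc cells after 18-24 h of compound exposure in a concentration series. The subsequent BugLite luminescent read reports ARE-luciferase activity.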
* hit, by the source's call; ? = inconclusive; nt = not tested or not shown; [ ] = remark or other dose. Unless noted, calls follow the shape of the dose curve; as a rule, active = well fitted curve in the direction sought with a large enough effect; inconclusive = small, poorly fitted or top-dose-only effect, or another doubt; inactive = no such curve, though single readings can be large; an effect the other way counts as inactive or inconclusive.

compound,Nrf2 ARE act,TCR activator,Nrf2 block,ClpP mod,miR-21 reporter,A549 viability
Cc1sc(NC(=O)c2ccc(OCC(C)C)cc2)c(C(N)=O)c1-c1ccc(Cl)cc1Cl,2.7%,-0.2%,18.4µM*,1.0%,-3.7%,-9.4%
CCCOc1ccc(C(=O)Nc2cccc(NC(=O)c3ccc(Cl)cc3Cl)c2)cc1,-0.1%,nt,-21.4%,-1.6%,-20.3%,-8.7%
CC(=O)Oc1ccc(C2OC(=O)c3ccccc3N2C(C)=O)cc1 (stereo unspecified),3.1%,4.9%,-7.6%,25.1µM*,3.5%,-0.5%
O=C1c2ccccc2C(=O)N1Cc1ccncc1,nt,nt,9.1%,nt,nt,6.0%
CC1(C(=O)Nc2ccc3c(c2)OCCO3)CCC(=O)N1CCc1c[nH]c2ccccc12 (stereo unspecified),0.7%,nt,nt,-0.5%,nt,nt
CCOc1ccc(NS(=O)(=O)c2ccc(C(=O)N3CCN(c4ncccn4)CC3)cc2)cc1,2.3%,-2.8%,16.4µM*,nt,28.4%,-21.3%
CCOc1ccc(NS(=O)(=O)c2ccc(C(=O)N3CCCCC3)cc2)cc1,0.1%,10.9%,?,0.1%,15.2%,-4.4%
CCOC(=O)N1CCN(C(=O)c2ccc(NS(=O)(=O)c3ccc(F)cc3)cc2)CC1,-1.0%,-6.7%,16.4µM*,0.4%,-3.5%,-2.2%

Carrying on.
compound,Nrf2 ARE act,TCR activator,Nrf2 block,ClpP mod,miR-21 reporter,A549 viability
Cc1ccc(S(=O)(=O)Nc2ccc(C(=O)N3CCN(c4ccccc4O)CC3)cc2)cc1[N+](=O)[O-],2.9%,-1.9%,14.6µM*,-3.1%,nt,-26.5%
CC(=O)N1CCN(C(=O)c2ccc(NS(=O)(=O)c3ccc(Cl)c(Cl)c3)cc2)CC1,0.1%,0.5%,4.9%,14.1µM*,nt,1.1%
CCc1ccc(NC(=O)C(C)OC(=O)c2ccc(NS(=O)(=O)c3ccc(C)c([N+](=O)[O-])c3)cc2)cc1 (stereo unspecified),3.2%,17.2%[46.1 µM],20.6µM*,-1.4%,10.7%,?
CCOc1ccc(NS(=O)(=O)c2ccc(C(=O)N(C)Cc3cccc(OC)c3OC)cc2)cc1,2.7%,4.8%,14.6µM*,-5.7%,15.3%,-7.4%
COc1cccc(CN(C)C(=O)c2ccc(NS(=O)(=O)c3ccc4[nH]c(=O)[nH]c4c3)cc2)c1OC,-0.7%,-2.5%,6.8%,1.5%,0.0%,-2.3%
CCc1noc(C)c1C(=O)N(CC)c1nc2c(C)cccc2s1,-0.1%,-5.5%,-16.2%,nt,nt,5.5%
CCOC(=O)c1sc(C)c2c1NC1(CCCCC1)NC2=O,3.6%,-11.6%,?,31.6µM*,-13.8%,-7.1%
CCOC(=O)c1sc(C)c2c1NC1(CCCCCC1)NC2=O,2.7%,-8.0%,-1.5%,?,-6.2%,-3.7%

Arranged by number of heavy atoms (low to high): 3 of the compounds above.
compound,Nrf2 ARE act,TCR activator,Nrf2 block,ClpP mod,miR-21 reporter,A549 viability
CCOC(=O)c1sc(C)c2c1NC1(CCCCC1)NC2=O,3.6%,-11.6%,?,31.6µM*,-13.8%,-7.1%
CC(=O)N1CCN(C(=O)c2ccc(NS(=O)(=O)c3ccc(Cl)c(Cl)c3)cc2)CC1,0.1%,0.5%,4.9%,14.1µM*,nt,1.1%
CCOc1ccc(NS(=O)(=O)c2ccc(C(=O)N(C)Cc3cccc(OC)c3OC)cc2)cc1,2.7%,4.8%,14.6µM*,-5.7%,15.3%,-7.4%

(further entries)
compound,Nrf2 ARE act,TCR activator,Nrf2 block,ClpP mod,miR-21 reporter,A549 viability
CCOC(=O)c1sc(C)c2c1NC(C)(c1cccs1)NC2=O (stereo unspecified),6.6%,nt,?,28.2µM*,0.6%,1.7%
CO[C@@H]1CN(C)C(=O)c2ccc(NC(=O)C3CCCC3)cc2OC[C@@H](C)N(Cc2ccc(F)cc2)C[C@H]1C,nt,nt,nt,-1.2%,nt,nt
CC(=O)c1ccc(N2CCN(C(=O)CNC(=O)c3ccc(Br)o3)CC2)cc1,-0.2%,nt,nt,-4.6%,nt,nt
CC(C)c1ccc(S(=O)(=O)Nc2cc3c(cc2NCc2ccccc2)n(C)c(=O)n3C)cc1,6.4%,nt,25.9µM*,3.8%,-4.5%,-10.3%
Cc1ccc(S(=O)(=O)Nc2cc3c(cc2NCc2ccccc2)n(C)c(=O)n3C)cc1,?,nt,?,3.9%,-27.4%,-15.7%
Cn1c(=O)n(C)c2cc(NS(=O)(=O)c3ccc(F)cc3)c(NCc3ccccc3)cc21,12.6µM*,nt,?,4.7%,-64.0%,2.5%
Cc1ccc(S(=O)(=O)Nc2cc3c(cc2NCc2ccccc2)n(C)c(=O)n3C)c(C)c1,?,nt,11.9%,4.4%,-49.3%,-4.0%
CC(=O)N1CCc2cc(S(=O)(=O)N3CCOCC3)ccc21,-1.2%,5.1%,11.6%,-0.7%,-5.6%,6.3%

Screening data from PubChem BioAssay.
